## Yeast mating assay 1: variants of the scFv Ab-14

From the AlphaSeq antibody data of Engelhart et al. 2022 (doi:10.1038/s41597-022-01779-4), copy in the FLAb collection.

Target: peptide PDVDLGDISGINAS, taken from heptad repeat 2 (HR2) of SARS-CoV-2 spike.

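The parent was found by panning a naive human phage display library on the peptide. The library (AAYL50) carries one to three amino acid substitutions per variant, with no insertions or deletions. Affinity was read by AlphaSeq, a pooled yeast mating assay with surface-displayed partners. The frequency of each diploid, read from paired DNA barcodes, reflects how well the two displayed proteins bind. Scores were corrected for input abundance and mapped to Kd with protein pairs of known affinity run in the same pool. Mating was done three times.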

The variants keep the heavy chain, the linker and the frameworks of Ab-14 (scFv order VH, a 15-residue (Gly4Ser)3 linker, VL).
VH: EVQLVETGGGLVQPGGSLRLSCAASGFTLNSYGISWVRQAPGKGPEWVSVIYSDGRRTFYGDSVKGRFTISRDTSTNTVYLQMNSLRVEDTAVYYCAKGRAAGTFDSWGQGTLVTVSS
VL: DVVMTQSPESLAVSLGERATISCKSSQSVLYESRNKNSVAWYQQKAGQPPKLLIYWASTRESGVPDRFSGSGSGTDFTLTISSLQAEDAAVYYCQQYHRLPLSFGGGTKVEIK

Variants are written as CDR1, CDR2 and CDR3 of the light chain (limits as in the source). Parent: KSSQSVLYESRNKNSVA, WASTRES, QQYHRLPLS. Scale: log10 of Kd in nM, estimated from mating counts; low values are strong binders. Averages over replicates are reported, and they cover detected replicates only. "n.d." means that the variant was in the library but no mating with the target was seen in that replicate; the authors take this as a sign of poor binding, and no number exists. Empty control strains, which show no peptide, gave a signal in 18% of pairings with library AAYL50; the median was 4.19 and 95% of these signals were weaker than 2.99. No background was subtracted. For reference, the parent read 0.65 as the reference entry and 1.68 as a member of this library.

CDR-L1,CDR-L2,CDR-L3,"replicates, log10 nM","log10 Kd (nM), mean"
KSSQWVLYESRNKNLVA,WASTRES,QQYHRCPLS,n.d. / n.d. / n.d.,n.d.
KSSQSVLYESRNKNSVA,WASTRES,DFYMRLPLS,n.d. / n.d. / n.d.,n.d.
KSSQSVLYHSRNKNSVA,LASTRES,QQYHRLPLS,n.d. / n.d. / n.d.,n.d.
KSSQSVLYESRNKQSVA,WASCRES,QQYHRLPLS,2.14 / 2.18 / 2.35,2.22
KSSQSSLYEQRNKNSVA,WASTRES,PQYHRLPLS,2.12 / 2.27 / n.d.,2.19
KSSQSVLYESRYKNSVA,WASTFES,QQYHRLPLS,n.d. / n.d. / n.d.,n.d.
KSSQSVLYESRNKNSVA,WASTRSS,AQYHRLPLF,2.44 / 2.84 / 2.69,2.66
KSSQSVMYESRNKNSVA,WASTRAE,QQYHRLPLS,-0.03 / 0.32 / 0.13,0.14
KSSQTVLYESRNKNSVA,WAMTRES,QQYHRLPLS,3.37 / 2.13 / 2.65,2.71
KSSQSVLYESRNKNSPA,WQSTRES,QQNHRLPLS,n.d. / n.d. / n.d.,n.d.
KSSQSVLYESRNKNSMA,WASTRES,QQYHRIELS,n.d. / n.d. / n.d.,n.d.
KSSRSVLYESRNKNSDA,WASHRES,QQYHRLPLS,n.d. / n.d. / n.d.,n.d.
KSFQSVLYESRNKNSVW,WKSTRES,QQYHRLPLS,n.d. / n.d. / n.d.,n.d.
KSSNSVLYESRNKNSVA,WEDTRES,QQYHRLPLS,4.02 / 2.88 / 3.87,3.59
KFPQSVLYESRNKNSVA,WASTRES,QQYHRLPLS,-0.17 / 0.19 / -0.07,-0.02
KSTQSVLYESRNKRSVA,WFSTRES,QQYHRLPLS,3.77 / n.d. / n.d.,3.77
KSSQSVLYESRNKSSEA,WASTRES,QQYHRLPLS,n.d. / 4.27 / n.d.,4.27
KSSQSVLYESRNKNSVQ,WASTRES,QAFHRLPLS,n.d. / 3.08 / 3.59,3.34
KSSQSVLYESCNKNDVA,WASTRES,QQYHRLPIS,2.24 / 2.38 / 2.37,2.33

Further variants, results first:

"replicates, log10 nM","log10 Kd (nM), mean",CDR-L1,CDR-L2,CDR-L3
n.d. / 3.72 / n.d.,3.72,KSSQSVLYESKNKNSPA,WASTEES,QQYHRLPLS
1.73 / n.d. / n.d.,1.73,KSSQSVLYRSRYKNSVA,WASTRES,QQYHVLPLS
2.64 / 3.24 / 3.98,3.29,KSSQSVLCESRNKNSVA,WASTRDC,QQYHRLPLS
n.d. / n.d. / n.d.,n.d.,KSSQPVLYLSRNKNSVA,WASTTES,QQYHRLPLS
2.54 / n.d. / n.d.,2.54,KSSQSKPYESRNKNRVA,WASTRES,QQYHRLPLS
1.33 / 1.28 / 1.47,1.36,KSKSSVLYESRNKNSVA,WASTRES,QQYHRMPLS
n.d. / n.d. / n.d.,n.d.,KSSQSVLYESRNKNSVA,MASTMES,QQYPRLPLS
n.d. / 3.21 / n.d.,3.21,KSSQSVLYESRNKKMVA,WASTRES,QQYHRLPLS
-0.88 / -0.48 / -0.80,-0.72,KSGQGVLYESRNKNSVA,GASTRES,QQYHRLPLS
3.85 / 2.77 / n.d.,3.31,KSSQSVLYESRNKNSVQ,WHLTRES,QQYHRLPLS
0.58 / 0.86 / 0.69,0.71,KSSQSVLMESRFGNSVA,WASTRES,QQYHRLPLS
4.01 / n.d. / n.d.,4.01,KSSQEVLYESRNKNSTA,WASTRES,QQNHRLPLS
4.33 / n.d. / n.d.,4.33,KSWQSVIYESRNKNSVA,WASTRES,TQYHRLPLS
3.12 / 2.69 / 3.76,3.19,KSSQSVLYESRNKNSVA,WASTIES,HQYIRLPLS
2.91 / 4.35 / 3.15,3.47,KSSQSVLYESRNKNSVA,WALTRES,QQHPRLPLS
n.d. / 3.00 / 4.64,3.82,KSSQSVLYESRNKNEVA,WASRRES,QQYARLPLS
n.d. / n.d. / n.d.,n.d.,KSSQSVFYESRNKNWVA,TASTRES,QQYHRLPLS
0.02 / 0.41 / 0.32,0.25,KSSQSVLLESRNDNSVA,WASTRES,TQYHRLPLS
n.d. / n.d. / n.d.,n.d.,KSSQSVLYESRNKNVVA,WASVRES,QQYNRLPLS
n.d. / n.d. / n.d.,n.d.,KSSQSVLYESMCKNSVR,WASTRES,QQYHRLPLS

The 7 strongest on average among those seen in every replicate, once more:

CDR-L1,CDR-L2,CDR-L3,"replicates, log10 nM","log10 Kd (nM), mean"
KSGQGVLYESRNKNSVA,GASTRES,QQYHRLPLS,-0.88 / -0.48 / -0.80,-0.72
KFPQSVLYESRNKNSVA,WASTRES,QQYHRLPLS,-0.17 / 0.19 / -0.07,-0.02
KSSQSVMYESRNKNSVA,WASTRAE,QQYHRLPLS,-0.03 / 0.32 / 0.13,0.14
KSSQSVLLESRNDNSVA,WASTRES,TQYHRLPLS,0.02 / 0.41 / 0.32,0.25
KSSQSVLMESRFGNSVA,WASTRES,QQYHRLPLS,0.58 / 0.86 / 0.69,0.71
KSKSSVLYESRNKNSVA,WASTRES,QQYHRMPLS,1.33 / 1.28 / 1.47,1.36
KSSQSVLYESRNKQSVA,WASCRES,QQYHRLPLS,2.14 / 2.18 / 2.35,2.22